Experimental data from US20170349638A1, “COMPANION DIAGNOSTIC TOOL FOR PEPTIDOMIMETIC MACROCYCLES” (AILERON Therapeutics, Inc., priority 2016, published 2017).

Experiments:
[1] = system: SJSA-1 cells; assay: Cell viability assay (MTT, 72 h) SJSA-1; conditions: read-out: SJSA-1 EC50 (72 h), Table 26B
[2] = system: p53+/+ cells relative to p53−/− cells; assay: EC50 ratio from MTT cell viability assays (p53+/+ cells vs p53−/− cells); type: cell-based; conditions: ratio of average IC50 in p53+/+ cells relative to average IC50 in p53−/− cells

| Compound | pEC50 [1] | EC50 Ratio [2] |
| --- | --- | --- |
| 5-FAM-BaLTA$5rn6EYWAQCba$5a5SAA-NH2 [SP464] | < 4.52 | – |
| 5-FAM-BaLTF$4rn6EYWAQCba$4a5SAA-NH2 [SP461] | 4.82 to 5.30 | – |
| 5-FAM-BaLTF$5rn6EYWAQCba$5a5SAA-NH2 [SP463] | 4.52 to 4.82 | – |
| CC(=O)N[C@@H](CC(C)C)C(=O)N[C@H](C(=O)N[C@@H](Cc1ccccc1)C(=O)N[C@]1(C)CCCCCCC=CCCC[C@@](C)(C(=O)N[C@@H](C)C(=O)N[C@@H](C)C(=O)N[C@@H](Cc2ccccc2)C(=O)N[C@H](C)C(N)=O)NC(=O)[C@H](CC(C)C)NC(=O)[C@H](CCC(N)=O)NC(=O)[C@H](C)NC(=O)[C@H](Cc2c[nH]c3ccccc23)NC(=O)[C@H](Cc2ccc(O)cc2)NC(=O)[C@H](CCC(=O)O)NC1=O)[C@@H](C)O (single isomer, unassigned) [compound 219] | – | 1-29 |
| CC(=O)N[C@@H](CC(C)C)C(=O)N[C@H](C(=O)N[C@@H](Cc1ccccc1)C(=O)N[C@]1(C)CCCCCCC=CCCC[C@@](C)(C(=O)N[C@@H](C)C(=O)N[C@@H](C)C(=O)N[C@@H](C)C(=O)N[C@@H](C)C(=O)N[C@@H](C)C(=O)N[C@@H](C)C(=O)N[C@H](C)C(N)=O)NC(=O)[C@H](CC(C)C)NC(=O)[C@H](CCC(N)=O)NC(=O)[C@H](C)NC(=O)[C@H](Cc2c[nH]c3ccccc23)NC(=O)[C@H](Cc2ccc(O)cc2)NC(=O)[C@H](C)NC1=O)[C@@H](C)O (single isomer, unassigned) [compound 316] | – | ≧50 |
| CC(=O)N[C@@H](C)C(=O)N[C@@H](CC(C)C)C(=O)N[C@H](C(=O)N[C@@H](Cc1ccccc1)C(=O)N[C@]1(C)CCCCCCC=CCCC[C@@](C)(C(=O)N[C@@H](CO)C(=O)N[C@@H](C)C(=O)N[C@@H](C)C(=O)N[C@H](C)C(N)=O)NC(=O)[C@H](CC2CCC2)NC(=O)[C@H](CCC(N)=O)NC(=O)[C@H](C)NC(=O)[C@H](Cc2c[nH]c3ccccc23)NC(=O)[C@H](Cc2ccc(O)cc2)NC(=O)[C@H](CCC(=O)O)NC1=O)[C@@H](C)O (single isomer, unassigned) [compound 355] | – | 1-29 |
| CC(=O)N[C@@H](CC(C)C)C(=O)N[C@H](C(=O)N[C@@H](Cc1ccccc1)C(=O)N[C@]1(C)CCCCCC/C=C/CCC[C@@](C)(C(=O)N[C@@H](CO)C(=O)N[C@@H](C)C(=O)N[C@@H](C)C(N)=O)NC(=O)[C@H](CCC(C)C)NC(=O)[C@H](CCC(N)=O)NC(=O)[C@H](C)NC(=O)[C@H](Cc2c[nH]c3ccccc23)NC(=O)[C@H](Cc2ccc(O)cc2)NC(=O)[C@H](C)NC1=O)[C@@H](C)O [compound 115] | – | 1-29 |
| CC(=O)N[C@@H](CC(C)C)C(=O)N[C@H](C(=O)N[C@@H](Cc1ccccc1)C(=O)N[C@]1(C)CCCCCCC=CCCC[C@@](C)(C(=O)N[C@@H](CO)C(=O)N[C@@H](C)C(=O)N[C@@H](CO)C(N)=O)NC(=O)[C@H](CC(C)C)NC(=O)[C@H](CCC(N)=O)NC(=O)[C@H](C)NC(=O)[C@H](Cc2c[nH]c3ccccc23)NC(=O)[C@H](Cc2ccc(O)cc2)NC(=O)[C@H](C)NC1=O)[C@@H](C)O [compound 122] | – | 1-29 |
| CC(=O)N[C@@H](CC(C)C)C(=O)N[C@H](C(=O)N[C@@H](Cc1ccc(F)c(F)c1)C(=O)N[C@]1(C)CCCCCC/C=C/CCC[C@@](C)(C(=O)N[C@@H](CO)C(=O)N[C@@H](C)C(=O)N[C@@H](C)C(N)=O)NC(=O)[C@H](CCC(C)C)NC(=O)[C@H](CCC(N)=O)NC(=O)[C@H](C)NC(=O)[C@H](Cc2c[nH]c3ccccc23)NC(=O)[C@H](Cc2ccc(O)cc2)NC(=O)[C@H](CCC(=O)O)NC1=O)[C@@H](C)O [compound 160] | – | 1-29 |
| CCCC[C@H](NC(=O)[C@H](C)NC(=O)[C@H](CO)NC(=O)[C@]1(C)CCCC=CCCCCCC[C@@](C)(NC(=O)[C@H](Cc2ccccc2)NC(=O)[C@@H](NC(=O)[C@H](CC(C)C)NC(C)=O)[C@@H](C)O)C(=O)N[C@@H](CCC(=O)O)C(=O)N[C@@H](Cc2ccc(C(=O)O)cc2)C(=O)N[C@@H](Cc2c[nH]c3ccccc23)C(=O)N[C@@H](C)C(=O)N[C@@H](CCC(N)=O)C(=O)N[C@@H](CC2CCC2)C(=O)N1)C(=O)N[C@@H](C)C(N)=O [compound 244] | – | ≧50 |
| CC[C@H](C)[C@H](NC(=O)[C@H](C)NC(=O)[C@H](C)NC(=O)[C@]1(C)CCC/C=C/CCCCCC[C@@](C)(NC(=O)[C@H](Cc2ccccc2)NC(=O)[C@@H](NC(=O)[C@H](CC(C)C)NC(C)=O)[C@@H](C)O)C(=O)N[C@@H](CCC(=O)O)C(=O)N[C@@H](Cc2ccc(C(=O)O)cc2)C(=O)N[C@@H](Cc2c[nH]c3ccccc23)C(=O)N[C@@H](C)C(=O)N[C@@H](CCC(N)=O)C(=O)N[C@@H](CC2CCC2)C(=O)N1)C(=O)N[C@H](C)C(N)=O [compound 249] | – | ≧50 |
| CC(=O)N[C@@H](CC(C)C)C(=O)N[C@H](C(=O)N[C@@H](Cc1ccccc1)C(=O)N[C@]1(C)CCCCCC/C=C/CCC[C@@](C)(C(=O)N[C@@H](C)C(=O)N[C@@H](C)C(=O)N[C@@H](C)C(=O)N[C@@H](C)C(=O)N[C@@H](C)C(=O)N[C@H](C)C(N)=O)NC(=O)[C@H](CC2CCC2)NC(=O)[C@H](CCC(N)=O)NC(=O)[C@H](C)NC(=O)[C@H](Cc2c[nH]c3ccccc23)NC(=O)[C@H](Cc2ccc(C(=O)O)cc2)NC(=O)[C@H](CCC(=O)O)NC1=O)[C@@H](C)O [compound 349] | – | 30-49 |
| CC(=O)N[C@@H](CC(C)C)C(=O)N[C@H](C(=O)N[C@@H](Cc1ccccc1)C(=O)N[C@]1(C)CCCCCC/C=C/CCC[C@@](C)(C(=O)N[C@@H](C)C(=O)N[C@@H](C)C(=O)N[C@@H](C)C(=O)N[C@@H](C)C(=O)N[C@@H](C)C(=O)N[C@H](C)C(N)=O)NC(=O)[C@H](CC2CCC2)NC(=O)[C@H](CCC(N)=O)NC(=O)[C@H](CO)NC(=O)[C@H](Cc2c[nH]c3ccccc23)NC(=O)[C@H](Cc2ccc(O)cc2)NC(=O)[C@H](CCC(=O)O)NC1=O)[C@@H](C)O [compound 351] | – | 30-49 |
| CC(=O)N[C@@H](CC(C)C)C(=O)N[C@H](C(=O)N[C@@H](Cc1ccccc1)C(=O)N[C@]1(C)CCCCCCC=CCCC[C@@](C)(C(=O)N[C@@H](CO)C(=O)N[C@@H](C)C(=O)N[C@@H](C)C(N)=O)NC(=O)[C@H](CC2CCC2)NC(=O)[C@H](CCC(N)=O)NC(=O)[C@H](CNC(=O)c2cc3ccc(O)cc3oc2=O)NC(=O)[C@H](Cc2c[nH]c3ccccc23)NC(=O)[C@H](Cc2ccc(O)cc2)NC(=O)[C@H](CCC(=O)O)NC1=O)[C@@H](C)O [compound 433] | – | 1-29 |
| CC(=O)N[C@@H](CC(C)C)C(=O)N[C@H](C(=O)N[C@@H](Cc1ccccc1)C(=O)N[C@]1(C)CCCCCCCCCCC[C@@](C)(C(=O)N[C@@H](C)C(=O)N[C@@H](C)C(=O)N[C@@H](C)C(=O)N[C@@H](C)C(=O)N[C@@H](C)C(=O)N[C@H](C)C(N)=O)NC(=O)[C@H](CC(C)C)NC(=O)[C@H](CCC(N)=O)NC(=O)[C@H](C)NC(=O)[C@H](Cc2c[nH]c3ccccc23)NC(=O)[C@H](Cc2ccc(O)cc2)NC(=O)[C@H](CCC(=O)O)NC1=O)[C@@H](C)O [compound 445] | – | ≧50 |
| CC(=O)N[C@@H](CC(C)C)C(=O)N[C@H](C(=O)N[C@@H](Cc1ccccc1)C(=O)N[C@]1(C)CCCCCC/C=C/CCC[C@@](C)(C(=O)N[C@@H](C)C(=O)N[C@@H](C)C(=O)N[C@@H](C)C(=O)N[C@@H](C)C(=O)N[C@@H](C)C(=O)N[C@H](C)C(N)=O)NC(=O)[C@H](CC(C)C)NC(=O)[C@H](CCC(N)=O)NC(=O)[C@H](C)NC(=O)[C@H](Cc2c[nH]c3cc(Cl)ccc23)NC(=O)[C@H](Cc2ccc(O)cc2)NC(=O)[C@H](CCC(=O)O)NC1=O)[C@@H](C)O [compound 555] | – | ≧50 |
| CC(=O)N[C@@H](C)C(=O)N[C@@H](C)C(=O)N[C@@H](C)C(=O)N[C@@H](CC(C)C)C(=O)N[C@H](C(=O)N[C@@H](Cc1ccccc1)C(=O)N[C@]1(C)CCCCCC/C=C/CCC[C@@](C)(C(=O)N[C@@H](C)C(=O)N[C@@H](C)C(=O)N[C@@H](C)C(=O)N[C@@H](C)C(=O)N[C@@H](C)C(=O)N[C@H](C)C(N)=O)NC(=O)[C@H](CC(C)C)NC(=O)[C@H](CCC(N)=O)NC(=O)[C@H](C)NC(=O)[C@H](Cc2c[nH]c3ccccc23)NC(=O)[C@H](Cc2ccc(O)cc2)NC(=O)[C@H](CCC(=O)O)NC1=O)[C@@H](C)O [compound 557] | – | ≧50 |
| CC(=O)N[C@@H](CCCNC(=N)N)C(=O)N[C@H](C(=O)N[C@@H](Cc1ccccc1)C(=O)N[C@]1(C)CCCCCCC=CCCC[C@@](C)(C(=O)N[C@@H](C)C(=O)N[C@@H](C)C(=O)N[C@@H](C)C(=O)N[C@@H](C)C(=O)N[C@@H](C)C(=O)N[C@H](C)C(N)=O)NC(=O)[C@H](CC(C)C)NC(=O)[C@H](CCC(N)=O)NC(=O)[C@H](C)NC(=O)[C@H](Cc2c[nH]c3ccccc23)NC(=O)[C@H](Cc2ccc(O)cc2)NC(=O)[C@H](CCC(=O)O)NC1=O)[C@@H](C)O [compound 559] | – | ≧50 |
| CC(=O)N[C@@H](CC(C)C)C(=O)N[C@H](C(=O)N[C@@H](Cc1ccccc1)C(=O)N[C@]1(C)CCCCCC/C=C/CCC[C@@](C)(C(=O)N[C@@H](C)C(=O)N[C@@H](C)C(=O)N[C@@H](C)C(=O)N[C@@H](C)C(=O)N[C@@H](C)C(=O)NC(C)(C)C(N)=O)NC(=O)[C@H](CC(C)C)NC(=O)[C@H](CCC(N)=O)NC(=O)[C@H](C)NC(=O)[C@H](Cc2c[nH]c3ccccc23)NC(=O)[C@H](Cc2ccc(O)cc2)NC(=O)[C@H](CCC(=O)O)NC1=O)[C@@H](C)O [compound 567] | – | ≧50 |
| CC(=O)N[C@@H](CC(C)C)C(=O)N[C@H](C(=O)N[C@@H](Cc1ccccc1)C(=O)N[C@]1(C)CCCCC#CC#CCCC[C@@](C)(C(=O)N[C@@H](C)C(=O)N[C@@H](C)C(=O)N[C@@H](C)C(=O)N[C@@H](C)C(=O)N[C@@H](C)C(=O)N[C@H](C)C(N)=O)NC(=O)[C@H](CC(C)C)NC(=O)[C@H](CCC(N)=O)NC(=O)[C@H](C)NC(=O)[C@H](Cc2c[nH]c3ccccc23)NC(=O)[C@H](Cc2ccc(O)cc2)NC(=O)[C@H](C)NC1=O)[C@@H](C)O [compound 662] | – | ≧50 |

pEC50: −log10 of the molar value.
